{"source": "patent US20250011790A1", "about": "“COMBINED TARGETING OF STAT3 AND ULKI TO TREAT GLIOBLASTOMA” (Vanderbilt University, priority 2021, published 2025)", "target": "T1, ULK1 (Homo sapiens, UniProt O75385)", "T1 sequence (O75385 1-1050)": "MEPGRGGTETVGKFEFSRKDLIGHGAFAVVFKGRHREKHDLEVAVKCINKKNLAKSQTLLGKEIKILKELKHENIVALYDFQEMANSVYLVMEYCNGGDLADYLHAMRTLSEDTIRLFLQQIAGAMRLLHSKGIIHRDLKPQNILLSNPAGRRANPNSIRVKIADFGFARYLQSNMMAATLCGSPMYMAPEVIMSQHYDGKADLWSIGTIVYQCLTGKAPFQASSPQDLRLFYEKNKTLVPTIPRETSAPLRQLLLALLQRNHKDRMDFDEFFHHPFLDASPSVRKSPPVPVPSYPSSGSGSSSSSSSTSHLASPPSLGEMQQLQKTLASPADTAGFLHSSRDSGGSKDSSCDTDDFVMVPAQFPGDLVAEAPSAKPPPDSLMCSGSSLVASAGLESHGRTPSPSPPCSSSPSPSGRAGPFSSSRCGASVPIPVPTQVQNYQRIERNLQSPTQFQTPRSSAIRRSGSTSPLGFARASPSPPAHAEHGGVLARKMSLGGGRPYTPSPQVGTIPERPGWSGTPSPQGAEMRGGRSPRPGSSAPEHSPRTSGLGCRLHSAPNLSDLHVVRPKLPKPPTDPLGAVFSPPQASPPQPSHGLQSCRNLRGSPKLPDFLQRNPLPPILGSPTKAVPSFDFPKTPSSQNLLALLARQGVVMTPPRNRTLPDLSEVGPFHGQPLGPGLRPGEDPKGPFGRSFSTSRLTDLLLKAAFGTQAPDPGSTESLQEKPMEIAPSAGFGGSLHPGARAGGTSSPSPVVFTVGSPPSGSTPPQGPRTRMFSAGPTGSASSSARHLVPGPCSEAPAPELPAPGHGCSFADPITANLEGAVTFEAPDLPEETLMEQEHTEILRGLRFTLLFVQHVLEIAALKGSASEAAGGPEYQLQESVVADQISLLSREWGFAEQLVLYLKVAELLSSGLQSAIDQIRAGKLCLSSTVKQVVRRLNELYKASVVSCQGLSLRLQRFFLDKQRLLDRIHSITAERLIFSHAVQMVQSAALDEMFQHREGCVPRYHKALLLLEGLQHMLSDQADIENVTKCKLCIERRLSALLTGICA", "test": "Western blot of ULK1 signaling (p-ATG14, p-Beclin1, p-ULK1) in MT330 cells", "format": "cell-based", "details": "MRT68921 20 μM, 5 h", "key": {"[1]": {"details": "STAT3-KO and STAT3-mutant MT330 lines"}}, "data": [{"smiles": "CN1CCc2cc(Nc3ncc(C4CC4)c(NCCCNC(=O)C4CCC4)n3)ccc2C1", "note": "[MRT68921]", "values": [{"measurement": "ATG14 S29 phosphorylation", "setting": "[1]", "result": "completely blocked"}, {"measurement": "Beclin1 phosphorylation", "setting": "[1]", "result": "reduced"}, {"measurement": "ULK1 phosphorylation", "setting": "STAT3-KO cells and cells expressing STAT3 mutants", "result": "significantly inhibited"}]}]}
